For the test, the species on record is Homo sapiens. Description: Selectivity index, ratio of IC50 for human MAOA to IC50 for human MAOB. The essentials:
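Selectivity index was computed as IC50 (MAO-A)/IC50 (MAO-B), each IC50 being the mean of three experiments.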

Two molecules from ChEMBL document CHEMBL4138066, “Synthesis and evaluation of small molecules bearing a benzyloxy substituent as novel and potent monoamine oxidase inhibitors” (Medchemcomm, 2017) can be followed below.

For `Brc1ccc(COc2cccc(Br)c2)cc1`, the Ratio IC50 is greater than 286.

Take `O=Cc1cccc(OCc2ccc(Br)cc2)c1`: the Ratio IC50 is 147.
